ChEMBL document CHEMBL1132449, “Pyrroloquinoxaline derivatives as high-affinity and selective 5-HT(3) receptor agonists: synthesis, further structure-activity relationships, and biological studies” (J Med Chem, 1999)

Amino acid sequences for entries named in this document (tags omitted). A change or cut given only in a name is not applied to a line headed by its entry.
UniProt P35563, whole entry: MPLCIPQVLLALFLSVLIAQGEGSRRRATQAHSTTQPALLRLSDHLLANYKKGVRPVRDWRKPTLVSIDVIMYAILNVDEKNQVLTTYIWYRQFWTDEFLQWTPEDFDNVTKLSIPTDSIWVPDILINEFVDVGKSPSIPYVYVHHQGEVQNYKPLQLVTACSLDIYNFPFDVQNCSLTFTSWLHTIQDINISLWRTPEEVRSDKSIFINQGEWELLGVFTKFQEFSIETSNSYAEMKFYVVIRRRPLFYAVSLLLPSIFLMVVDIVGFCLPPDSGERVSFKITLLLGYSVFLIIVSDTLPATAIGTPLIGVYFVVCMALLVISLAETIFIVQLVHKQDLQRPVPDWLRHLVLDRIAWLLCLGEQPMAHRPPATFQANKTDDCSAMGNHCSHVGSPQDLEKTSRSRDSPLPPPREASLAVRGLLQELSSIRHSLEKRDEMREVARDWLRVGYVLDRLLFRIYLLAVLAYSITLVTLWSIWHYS
UniProt Q9JJ16: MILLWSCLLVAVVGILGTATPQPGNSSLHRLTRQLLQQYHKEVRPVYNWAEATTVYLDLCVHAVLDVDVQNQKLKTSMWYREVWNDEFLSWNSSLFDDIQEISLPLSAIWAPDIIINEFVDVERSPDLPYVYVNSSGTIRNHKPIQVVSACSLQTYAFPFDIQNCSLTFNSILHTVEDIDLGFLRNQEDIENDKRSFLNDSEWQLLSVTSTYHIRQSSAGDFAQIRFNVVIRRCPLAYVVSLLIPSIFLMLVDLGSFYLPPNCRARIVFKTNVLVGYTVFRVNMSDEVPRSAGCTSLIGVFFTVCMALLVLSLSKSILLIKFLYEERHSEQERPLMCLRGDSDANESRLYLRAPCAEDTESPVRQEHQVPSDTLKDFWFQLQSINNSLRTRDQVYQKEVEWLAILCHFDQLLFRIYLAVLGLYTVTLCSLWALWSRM
UniProt P19327, whole entry: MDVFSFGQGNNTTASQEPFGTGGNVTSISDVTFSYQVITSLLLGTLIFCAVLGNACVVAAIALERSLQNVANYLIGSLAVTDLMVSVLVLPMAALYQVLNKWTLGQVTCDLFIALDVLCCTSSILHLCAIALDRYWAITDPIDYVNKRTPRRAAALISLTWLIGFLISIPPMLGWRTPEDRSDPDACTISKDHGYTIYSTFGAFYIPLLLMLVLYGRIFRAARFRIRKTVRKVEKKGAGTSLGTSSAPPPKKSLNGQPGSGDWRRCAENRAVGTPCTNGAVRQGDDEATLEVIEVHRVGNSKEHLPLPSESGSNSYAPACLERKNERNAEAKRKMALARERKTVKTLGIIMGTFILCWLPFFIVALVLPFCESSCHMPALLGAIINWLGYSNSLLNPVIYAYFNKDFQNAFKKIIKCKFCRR

What was measured:
[1] = molecular target: Serotonin 3 (5-HT3) receptor (Rattus norvegicus, UniProt P35563+Q9JJ16); experiment: The compound was tested for the binding affinity against 5-hydroxytryptamine 3 receptor using [3H]zacopride as radioligand.; format: protein-complex assay
[2] = molecular target: 5-hydroxytryptamine receptor 1A (Rattus norvegicus, UniProt P19327); experiment: The compound was tested for the binding affinity against 5-hydroxytryptamine 1A receptor using [3H]8-OH-DPAT as radioligand.

In the case of `NCCc1c[nH]c2ccc(O)cc12` [SEROTONIN], the Ki [1] is reported as 398 nM and the Ki [2] is reported as 1.58 nM.
